Data on 1 compound can be found in ChEMBL document CHEMBL4825767, “Development of 2-(5,6,7-Trifluoro-1H-Indol-3-yl)-quinoline-5-carboxamide as a Potent, Selective, and Orally Available Inhibitor of Human Androgen Receptor Targeting Its Binding Function-3 for the Treatment of Castration-Resistant Prostate Cancer” (J Med Chem, 2021).

Sequences of proteins named here, by UniProt entry; tags and fusion partners are left off. A change or cut given only in a name is not applied to a line headed by its entry.
UniProt P10275: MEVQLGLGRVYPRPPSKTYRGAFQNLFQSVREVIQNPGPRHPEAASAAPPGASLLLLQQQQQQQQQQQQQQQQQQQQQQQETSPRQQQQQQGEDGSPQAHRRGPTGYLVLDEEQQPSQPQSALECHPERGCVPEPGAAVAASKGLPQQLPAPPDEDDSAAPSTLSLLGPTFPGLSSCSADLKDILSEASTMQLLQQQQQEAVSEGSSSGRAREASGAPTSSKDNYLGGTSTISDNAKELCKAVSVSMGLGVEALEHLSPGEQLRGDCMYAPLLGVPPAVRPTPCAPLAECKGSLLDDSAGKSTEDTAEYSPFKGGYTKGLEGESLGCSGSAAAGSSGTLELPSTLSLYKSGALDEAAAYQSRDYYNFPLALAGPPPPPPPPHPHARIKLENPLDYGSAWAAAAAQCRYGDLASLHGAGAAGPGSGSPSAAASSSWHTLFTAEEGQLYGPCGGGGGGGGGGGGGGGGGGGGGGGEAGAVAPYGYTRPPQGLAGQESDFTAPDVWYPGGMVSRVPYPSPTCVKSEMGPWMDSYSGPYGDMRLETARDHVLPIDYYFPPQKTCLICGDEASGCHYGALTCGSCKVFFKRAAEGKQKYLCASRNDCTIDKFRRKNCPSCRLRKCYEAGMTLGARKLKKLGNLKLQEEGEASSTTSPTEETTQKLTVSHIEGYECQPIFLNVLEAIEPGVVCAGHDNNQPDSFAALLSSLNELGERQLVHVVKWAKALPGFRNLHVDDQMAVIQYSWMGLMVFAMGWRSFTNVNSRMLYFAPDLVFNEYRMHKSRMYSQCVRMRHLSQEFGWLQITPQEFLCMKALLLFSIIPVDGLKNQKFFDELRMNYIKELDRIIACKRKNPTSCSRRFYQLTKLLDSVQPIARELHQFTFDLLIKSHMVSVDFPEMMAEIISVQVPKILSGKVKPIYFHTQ

The target in this experiment is Androgen receptor (Homo sapiens, UniProt P10275).

By IC50 is commonly meant the concentration that gives 50% inhibition. `Fc1cc(Cl)c2[nH]cc(-c3ccc4ccccc4n3)c2c1` gave an IC50 of 100 nM.
